In PubChem BioAssay AID504662 (National Center for Advancing Translational Sciences (NCATS), 2011):
This is one part of the list. Active and inactive are the calls of the source.

By UniProt entry, the sequences of proteins in these tests, tags left out. Where a name states a change or a piece, a line headed by the entry shows the natural chain unless it says otherwise.
UniProt P54132: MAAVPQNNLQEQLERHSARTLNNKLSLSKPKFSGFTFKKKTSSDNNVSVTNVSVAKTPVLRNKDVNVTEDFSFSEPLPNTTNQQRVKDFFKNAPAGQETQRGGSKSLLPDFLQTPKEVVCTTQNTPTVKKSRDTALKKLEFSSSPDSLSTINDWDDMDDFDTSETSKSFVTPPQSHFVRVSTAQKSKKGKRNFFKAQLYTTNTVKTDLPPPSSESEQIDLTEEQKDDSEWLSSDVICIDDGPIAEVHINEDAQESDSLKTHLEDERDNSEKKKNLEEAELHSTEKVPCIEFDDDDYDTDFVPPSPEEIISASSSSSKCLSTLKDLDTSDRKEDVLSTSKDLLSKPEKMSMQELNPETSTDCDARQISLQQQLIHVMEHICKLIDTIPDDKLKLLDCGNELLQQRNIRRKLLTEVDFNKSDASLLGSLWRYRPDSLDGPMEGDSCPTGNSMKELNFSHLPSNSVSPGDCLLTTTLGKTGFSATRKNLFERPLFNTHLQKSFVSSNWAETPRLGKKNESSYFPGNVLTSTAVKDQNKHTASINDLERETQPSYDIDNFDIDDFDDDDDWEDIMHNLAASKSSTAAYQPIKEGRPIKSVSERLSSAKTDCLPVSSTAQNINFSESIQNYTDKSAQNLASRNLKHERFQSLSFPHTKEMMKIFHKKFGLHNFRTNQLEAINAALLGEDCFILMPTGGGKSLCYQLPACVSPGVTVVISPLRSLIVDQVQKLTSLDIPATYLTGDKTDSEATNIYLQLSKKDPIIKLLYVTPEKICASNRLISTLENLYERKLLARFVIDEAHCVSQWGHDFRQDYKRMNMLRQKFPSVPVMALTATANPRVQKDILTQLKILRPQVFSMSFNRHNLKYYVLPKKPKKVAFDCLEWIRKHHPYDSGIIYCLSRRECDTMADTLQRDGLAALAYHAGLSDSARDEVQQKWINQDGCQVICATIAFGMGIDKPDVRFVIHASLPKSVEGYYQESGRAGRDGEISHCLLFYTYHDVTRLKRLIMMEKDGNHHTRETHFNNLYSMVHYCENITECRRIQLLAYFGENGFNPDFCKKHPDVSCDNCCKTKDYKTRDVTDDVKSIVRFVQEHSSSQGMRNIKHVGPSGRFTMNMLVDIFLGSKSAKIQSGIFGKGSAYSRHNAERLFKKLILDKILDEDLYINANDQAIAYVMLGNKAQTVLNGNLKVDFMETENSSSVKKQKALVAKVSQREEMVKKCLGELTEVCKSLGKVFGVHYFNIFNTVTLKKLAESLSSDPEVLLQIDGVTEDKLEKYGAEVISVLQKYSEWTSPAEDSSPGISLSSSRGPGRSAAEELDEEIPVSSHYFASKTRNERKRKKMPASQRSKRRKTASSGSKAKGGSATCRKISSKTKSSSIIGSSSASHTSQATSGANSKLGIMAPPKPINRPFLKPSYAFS

Target: RecQ-like DNA helicase BLM (Homo sapiens) (UniProt P54132)
Assay: Inhibitors of BLM Helicase: DNA Unwinding Measured by Gel Electrophoresis - BLM Helicase Activity
Settings: Purified BLM

Question: For `O=C(Nc1ccc(F)c(C(F)(F)F)c1)Nc1nnc(-c2ccncc2)s1`, which Potency is on record?
Answer: active: 5 µM
